# Source: US10300029B2, “Organ protection solutions and method of use” (VIRGINIA COMMONWEALTH UNIVERSITY, priority 2011, dated 2019)
# Tested on: rats with severe hemorrhagic shock
# Assay: Rodent shock model, acute low volume resuscitation (Example 8)
# Format: in vivo, Sprague Dawley rats
# Method: FIG. 10A-D. A) Diagram showing the shock, resuscitation, and recovery protocol used for these studies. The low volume resuscitation (LVR) time is the time from the start of the low volume resuscitation (after the lactate during hemorrhagic shock reaches 9-10 mM) until the time after the LVR infusion when the lactate rises back up to 9-10 mM again. This immediately precedes full resuscitation. The LVR time is a measure of the tolerance to the low volume state and is a function of the microcirculatory effectiveness since it is dependent on the rate of change of the plasma lactate. […] C) Mean Arterial (blood) Pressure (MAP) measured at 15 min, 30 min, and at the end of the low volume resuscitation period for (6) groups of rats treated with various amounts of PEG-20k, Albumin, Hextend, or Saline as the low volume resuscitation solution. * P<0.05 relative to the other corresponding groups, # P<0.05 relative to all other corresponding values, n=6-10 per group, all values are mean±SD. D) The oncotic reflection coefficient (σd) for PEG-20k was measured in six rats to determine the impermeant and the oncotic effects of this molecule in both the mesenteric vascular bed and the thoracic bed. […] FITC-labelled PEG-20k was measured by excitation-emission spectrofluorometry. […]
substance,measurement,setting,value
"albumin: most abundant protein in the blood, classical volume expander, pure oncotic agent",LVR time compared to PEG-20k,10% Hextend or 10% albumin,significantly lower
same,mean arterial blood pressure during LVR period,compared with saline (10%),improved
